The chains behind the UniProt entries cited, without tags or fusion partners. Where a name states a change or a piece, a line headed by the entry shows the natural chain unless it says otherwise.
UniProt Q9UKV0: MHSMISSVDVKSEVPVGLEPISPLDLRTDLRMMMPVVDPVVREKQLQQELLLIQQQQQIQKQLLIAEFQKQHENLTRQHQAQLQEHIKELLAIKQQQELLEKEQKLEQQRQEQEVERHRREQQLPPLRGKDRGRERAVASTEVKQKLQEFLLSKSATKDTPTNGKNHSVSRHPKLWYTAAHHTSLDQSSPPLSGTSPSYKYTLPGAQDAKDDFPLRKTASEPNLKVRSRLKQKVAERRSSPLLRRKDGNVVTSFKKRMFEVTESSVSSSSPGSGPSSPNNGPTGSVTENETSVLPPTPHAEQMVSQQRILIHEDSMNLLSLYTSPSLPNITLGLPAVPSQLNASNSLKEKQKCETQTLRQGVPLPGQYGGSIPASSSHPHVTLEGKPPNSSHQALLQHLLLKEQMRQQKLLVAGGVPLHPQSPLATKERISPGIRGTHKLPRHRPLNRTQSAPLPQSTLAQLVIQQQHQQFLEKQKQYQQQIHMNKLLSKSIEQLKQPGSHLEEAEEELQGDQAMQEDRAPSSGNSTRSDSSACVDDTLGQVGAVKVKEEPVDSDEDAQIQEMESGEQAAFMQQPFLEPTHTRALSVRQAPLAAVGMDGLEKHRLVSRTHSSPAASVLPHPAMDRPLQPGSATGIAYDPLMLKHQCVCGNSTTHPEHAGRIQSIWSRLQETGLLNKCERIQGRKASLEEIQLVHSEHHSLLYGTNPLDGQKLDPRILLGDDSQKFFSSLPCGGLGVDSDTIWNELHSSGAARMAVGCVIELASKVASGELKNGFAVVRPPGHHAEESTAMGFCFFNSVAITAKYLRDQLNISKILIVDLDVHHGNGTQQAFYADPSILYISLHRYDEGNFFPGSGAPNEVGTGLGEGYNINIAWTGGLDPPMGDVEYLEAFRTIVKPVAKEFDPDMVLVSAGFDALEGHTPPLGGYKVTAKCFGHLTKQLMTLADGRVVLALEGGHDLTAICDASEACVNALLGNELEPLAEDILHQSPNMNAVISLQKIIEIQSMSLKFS

According to patent US20100061984A1, “COMPOSITIONS AND METHODS FOR MODULATION OF SUPPRESSOR T CELL ACTIVATION” (The Trustees of the University of Pennsylvania, priority 2006, published 2010):

Experiments:
[1] = molecular target: T1, FOXP3-HDAC9 complex (Homo sapiens, UniProt Q9UKV0); assay: endogenous FOXP3-HDAC9 co-immunoprecipitation in activated and expanded human CD4+CD25+ T cells; assay type: cell-based; settings: 400 nM TSA for 4 hours, anti-CD3/CD28 activated and expanded human CD4+CD25+ T cells (FIG. 15B)
T1 construct: antagonize the FOXP3 complex from its association with endogenous HDAC9; expressed in transfected cells; host or cells: Jurkat E6.1 T cells (FOXP3a transfected; HDAC9 endogenous)

[2] = molecular target: T1, FOXP3-HDAC9 complex; assay: FOXP3-HDAC9 co-immunoprecipitation in TCR plus CD28 stimulated HA-FOXP3a Jurkat T cells; assay type: cell-based; settings: 400 nM TSA, 4 hours, Jurkat T cells expressing HA-FOXP3a (FIG. 15A)

For `CC(/C=C/C(=O)NO)=C\[C@@H](C)C(=O)c1ccc(N(C)C)cc1` [TSA, Trichostatin A], the “endogenous FOXP3-HDAC9 association” value [1] was “sufficient to promote endogenous FOXP3-HDAC9 association” and the “disruption of the FOXP3-HDAC9 complex by TCR plus CD28 stimulation” value [2] was “can be reversed”.
